Data on 1 compound can be found in patent publication US8974768B2, “Azo compounds reducing formation and toxicity of amyloid beta aggregation intermediates” (Max-Delbrueck-Centrum fuer Molekulare Medizin, priority 2010, dated 2015).

The chains behind the UniProt entries cited, without tags or fusion partners. Residues count along the entry.
UniProt P05067, 672-713 limits assumed: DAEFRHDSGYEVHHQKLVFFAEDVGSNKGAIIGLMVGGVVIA

Usually IC50 stands for the concentration needed to halve the response being measured.

One series has as its target Aβ1-42 peptide (Homo sapiens, UniProt P05067). Nature of the series: Thioflavin T (Thio T)-assay of Aβ aggregation. To be noted: read-out: ThioT: IC50; 30 μM Aβ1-42 peptide, 48 h at 37° C., vs DMSO control. The format is biochemical.
The nature of series [1]: Detection of compounds in brain after in vivo administration. More on the design: Detection in brain after i.v. administration: key to the marks not given beside the values.
Series [2] has as its system secreted Aβ monomers and dimers. Description: Cell-based Aβ-monomer and dimer assay (7PA2 cells, immunoprecipitation/immunoblot). The following applies: 20 μM compound, 16-20 hours.

On to `O=[N+]([O-])c1ccc(N=Nc2ccc(O)c([N+](=O)[O-])c2)c([N+](=O)[O-])c1`, for which the IC50 on Aβ1-42 peptide amounted to 2.6 µM. Moreover, the “Detection in brain after i.v. administration” value in series [1] (B6C3 mouse, 5 mg/kg body weight i.v. once, brain samples) is “++”. Further, in series [1] (mouse brain, oral gavage or feeding pellets), the “Detectability after oral administration” value is “excellent”. Further, the “Detection in brain after oral administration, oral gavage administration” value in series [1] (mouse, five to seven doses over two or three days, sampling 30 min. after last application) is recorded as “++^a)/n.d.^b)”. The Dimer reduction result in series [2] is reported as “toxic”.
